Laboratory results: patent US20260384442A1, “MACROCYCLIC COMPOUND AS CDK9 INHIBITOR AND USE THEREOF” (published 2026)

Sequences of proteins named here, by UniProt entry; tags and fusion partners are left off.
UniProt O60674, whole entry: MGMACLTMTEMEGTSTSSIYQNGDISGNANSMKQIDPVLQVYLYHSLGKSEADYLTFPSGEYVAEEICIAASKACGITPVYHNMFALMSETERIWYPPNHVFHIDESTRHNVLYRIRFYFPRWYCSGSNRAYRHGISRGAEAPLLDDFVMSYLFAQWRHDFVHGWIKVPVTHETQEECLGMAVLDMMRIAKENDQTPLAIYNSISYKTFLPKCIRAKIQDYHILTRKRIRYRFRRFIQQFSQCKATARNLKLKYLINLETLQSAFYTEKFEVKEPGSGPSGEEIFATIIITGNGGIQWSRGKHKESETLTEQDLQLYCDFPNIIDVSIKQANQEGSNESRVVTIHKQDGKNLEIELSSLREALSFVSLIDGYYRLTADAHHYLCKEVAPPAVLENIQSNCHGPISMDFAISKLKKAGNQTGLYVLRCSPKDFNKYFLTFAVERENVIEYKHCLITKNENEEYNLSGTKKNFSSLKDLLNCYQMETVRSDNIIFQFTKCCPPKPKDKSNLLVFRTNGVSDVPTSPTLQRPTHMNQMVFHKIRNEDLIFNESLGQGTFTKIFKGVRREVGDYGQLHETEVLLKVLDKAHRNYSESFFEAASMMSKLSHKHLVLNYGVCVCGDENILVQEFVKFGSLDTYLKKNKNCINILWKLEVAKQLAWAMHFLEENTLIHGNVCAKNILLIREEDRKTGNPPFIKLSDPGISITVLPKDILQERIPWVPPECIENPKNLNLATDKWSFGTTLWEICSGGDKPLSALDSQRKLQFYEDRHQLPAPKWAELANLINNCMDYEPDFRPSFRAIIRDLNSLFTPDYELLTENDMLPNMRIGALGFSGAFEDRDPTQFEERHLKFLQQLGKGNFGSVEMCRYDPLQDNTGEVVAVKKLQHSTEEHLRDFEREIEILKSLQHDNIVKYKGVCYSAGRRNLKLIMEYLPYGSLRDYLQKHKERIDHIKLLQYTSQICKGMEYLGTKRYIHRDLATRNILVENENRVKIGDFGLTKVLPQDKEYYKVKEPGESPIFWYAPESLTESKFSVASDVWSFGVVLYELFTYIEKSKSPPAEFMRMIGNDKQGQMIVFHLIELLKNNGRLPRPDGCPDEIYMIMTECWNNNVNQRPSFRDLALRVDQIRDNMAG
UniProt P23458, whole entry: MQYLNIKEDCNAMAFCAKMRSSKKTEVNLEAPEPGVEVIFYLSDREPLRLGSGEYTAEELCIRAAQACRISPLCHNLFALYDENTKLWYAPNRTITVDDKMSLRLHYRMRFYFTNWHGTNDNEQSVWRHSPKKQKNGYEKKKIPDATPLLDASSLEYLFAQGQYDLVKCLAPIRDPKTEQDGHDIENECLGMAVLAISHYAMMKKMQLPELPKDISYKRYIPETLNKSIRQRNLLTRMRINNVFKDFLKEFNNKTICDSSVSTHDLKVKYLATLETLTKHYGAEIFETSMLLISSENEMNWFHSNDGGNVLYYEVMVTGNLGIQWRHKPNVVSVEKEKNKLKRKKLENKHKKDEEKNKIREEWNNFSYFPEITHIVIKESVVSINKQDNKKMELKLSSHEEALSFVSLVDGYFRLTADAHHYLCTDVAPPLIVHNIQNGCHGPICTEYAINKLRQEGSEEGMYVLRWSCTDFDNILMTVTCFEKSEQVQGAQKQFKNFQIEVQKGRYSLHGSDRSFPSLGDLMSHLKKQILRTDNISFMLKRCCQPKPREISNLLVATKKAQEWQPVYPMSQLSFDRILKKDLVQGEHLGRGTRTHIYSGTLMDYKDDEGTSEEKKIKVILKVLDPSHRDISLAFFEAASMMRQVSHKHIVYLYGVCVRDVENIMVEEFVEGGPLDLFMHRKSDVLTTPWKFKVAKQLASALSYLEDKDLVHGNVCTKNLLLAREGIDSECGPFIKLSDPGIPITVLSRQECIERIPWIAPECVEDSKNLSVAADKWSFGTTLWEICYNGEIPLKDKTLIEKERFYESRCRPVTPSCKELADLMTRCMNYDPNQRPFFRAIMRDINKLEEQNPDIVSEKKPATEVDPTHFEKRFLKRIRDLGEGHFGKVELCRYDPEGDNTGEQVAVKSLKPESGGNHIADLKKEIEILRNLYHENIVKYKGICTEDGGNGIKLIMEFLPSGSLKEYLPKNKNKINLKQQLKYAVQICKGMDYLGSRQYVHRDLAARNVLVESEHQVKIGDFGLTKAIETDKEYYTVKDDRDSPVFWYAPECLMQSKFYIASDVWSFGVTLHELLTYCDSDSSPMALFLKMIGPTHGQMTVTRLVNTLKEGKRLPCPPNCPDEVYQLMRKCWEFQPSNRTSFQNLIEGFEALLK
UniProt P50750, whole entry: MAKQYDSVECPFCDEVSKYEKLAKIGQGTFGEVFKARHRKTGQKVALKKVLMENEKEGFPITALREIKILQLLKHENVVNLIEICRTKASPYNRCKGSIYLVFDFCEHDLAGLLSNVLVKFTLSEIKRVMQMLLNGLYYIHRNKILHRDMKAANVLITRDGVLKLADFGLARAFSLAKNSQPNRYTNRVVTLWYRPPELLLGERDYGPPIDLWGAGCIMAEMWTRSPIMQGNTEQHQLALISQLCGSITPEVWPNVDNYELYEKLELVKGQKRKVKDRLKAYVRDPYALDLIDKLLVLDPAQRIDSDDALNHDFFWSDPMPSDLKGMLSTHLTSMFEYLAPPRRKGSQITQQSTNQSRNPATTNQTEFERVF
UniProt Q5S007, whole entry: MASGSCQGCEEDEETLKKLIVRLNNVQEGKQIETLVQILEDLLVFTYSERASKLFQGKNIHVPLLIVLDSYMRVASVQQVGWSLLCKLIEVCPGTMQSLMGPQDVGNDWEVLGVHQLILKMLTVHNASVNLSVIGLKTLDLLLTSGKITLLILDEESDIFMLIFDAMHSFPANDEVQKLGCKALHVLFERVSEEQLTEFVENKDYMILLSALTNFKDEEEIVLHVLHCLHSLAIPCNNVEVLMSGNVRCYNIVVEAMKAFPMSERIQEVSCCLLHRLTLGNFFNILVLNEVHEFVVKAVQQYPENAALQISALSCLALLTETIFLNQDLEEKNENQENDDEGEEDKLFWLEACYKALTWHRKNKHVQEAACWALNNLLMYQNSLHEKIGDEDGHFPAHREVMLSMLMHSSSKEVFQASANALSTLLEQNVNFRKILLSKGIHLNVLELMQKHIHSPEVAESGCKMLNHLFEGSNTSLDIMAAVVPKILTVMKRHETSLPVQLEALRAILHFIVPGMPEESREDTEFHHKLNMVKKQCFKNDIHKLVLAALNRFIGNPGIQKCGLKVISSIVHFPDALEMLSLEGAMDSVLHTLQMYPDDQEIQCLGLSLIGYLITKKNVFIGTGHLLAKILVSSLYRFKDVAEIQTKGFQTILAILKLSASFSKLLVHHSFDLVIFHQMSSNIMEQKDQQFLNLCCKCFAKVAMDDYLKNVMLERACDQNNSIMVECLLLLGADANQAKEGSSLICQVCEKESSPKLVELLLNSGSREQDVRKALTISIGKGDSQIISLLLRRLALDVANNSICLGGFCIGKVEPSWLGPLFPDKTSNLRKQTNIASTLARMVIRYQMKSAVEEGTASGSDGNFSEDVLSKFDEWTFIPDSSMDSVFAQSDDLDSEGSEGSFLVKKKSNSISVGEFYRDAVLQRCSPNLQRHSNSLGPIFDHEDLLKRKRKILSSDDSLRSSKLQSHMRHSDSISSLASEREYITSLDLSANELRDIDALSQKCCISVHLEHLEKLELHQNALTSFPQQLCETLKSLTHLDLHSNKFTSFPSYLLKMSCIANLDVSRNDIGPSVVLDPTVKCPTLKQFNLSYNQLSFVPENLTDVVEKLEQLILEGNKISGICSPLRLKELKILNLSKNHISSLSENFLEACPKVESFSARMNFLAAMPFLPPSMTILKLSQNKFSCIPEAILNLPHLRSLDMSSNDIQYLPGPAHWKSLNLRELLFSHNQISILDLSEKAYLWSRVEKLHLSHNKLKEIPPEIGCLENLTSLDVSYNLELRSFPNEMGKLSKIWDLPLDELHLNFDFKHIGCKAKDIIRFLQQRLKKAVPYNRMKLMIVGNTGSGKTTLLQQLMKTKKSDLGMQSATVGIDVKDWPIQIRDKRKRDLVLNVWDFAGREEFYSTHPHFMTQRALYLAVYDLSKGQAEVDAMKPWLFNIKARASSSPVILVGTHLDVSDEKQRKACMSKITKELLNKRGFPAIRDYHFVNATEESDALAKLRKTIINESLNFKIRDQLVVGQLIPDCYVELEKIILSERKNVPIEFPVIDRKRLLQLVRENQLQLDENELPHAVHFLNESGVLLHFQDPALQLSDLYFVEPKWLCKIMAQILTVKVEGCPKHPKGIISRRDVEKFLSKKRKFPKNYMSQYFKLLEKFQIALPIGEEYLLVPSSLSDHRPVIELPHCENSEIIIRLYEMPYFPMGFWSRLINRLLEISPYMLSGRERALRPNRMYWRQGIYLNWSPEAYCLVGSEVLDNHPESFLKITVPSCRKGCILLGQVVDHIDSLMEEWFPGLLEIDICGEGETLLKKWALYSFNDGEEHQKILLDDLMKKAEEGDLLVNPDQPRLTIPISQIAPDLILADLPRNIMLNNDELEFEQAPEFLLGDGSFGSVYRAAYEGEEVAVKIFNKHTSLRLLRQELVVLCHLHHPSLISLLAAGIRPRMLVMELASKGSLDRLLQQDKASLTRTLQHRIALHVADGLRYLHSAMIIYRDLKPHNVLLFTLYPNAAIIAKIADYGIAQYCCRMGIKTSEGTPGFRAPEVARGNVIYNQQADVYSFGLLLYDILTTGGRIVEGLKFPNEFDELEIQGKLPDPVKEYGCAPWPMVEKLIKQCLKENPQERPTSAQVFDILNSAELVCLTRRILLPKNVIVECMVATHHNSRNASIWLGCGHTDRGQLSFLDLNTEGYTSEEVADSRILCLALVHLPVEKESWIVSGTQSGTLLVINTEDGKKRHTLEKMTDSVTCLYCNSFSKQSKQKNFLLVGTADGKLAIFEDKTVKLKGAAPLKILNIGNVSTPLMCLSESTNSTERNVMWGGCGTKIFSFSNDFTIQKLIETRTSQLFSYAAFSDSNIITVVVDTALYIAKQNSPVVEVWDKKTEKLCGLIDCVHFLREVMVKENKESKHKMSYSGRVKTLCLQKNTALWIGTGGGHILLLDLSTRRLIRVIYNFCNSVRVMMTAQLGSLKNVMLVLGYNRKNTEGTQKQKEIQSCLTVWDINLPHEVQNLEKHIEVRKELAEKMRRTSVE
UniProt O60563, whole entry partner: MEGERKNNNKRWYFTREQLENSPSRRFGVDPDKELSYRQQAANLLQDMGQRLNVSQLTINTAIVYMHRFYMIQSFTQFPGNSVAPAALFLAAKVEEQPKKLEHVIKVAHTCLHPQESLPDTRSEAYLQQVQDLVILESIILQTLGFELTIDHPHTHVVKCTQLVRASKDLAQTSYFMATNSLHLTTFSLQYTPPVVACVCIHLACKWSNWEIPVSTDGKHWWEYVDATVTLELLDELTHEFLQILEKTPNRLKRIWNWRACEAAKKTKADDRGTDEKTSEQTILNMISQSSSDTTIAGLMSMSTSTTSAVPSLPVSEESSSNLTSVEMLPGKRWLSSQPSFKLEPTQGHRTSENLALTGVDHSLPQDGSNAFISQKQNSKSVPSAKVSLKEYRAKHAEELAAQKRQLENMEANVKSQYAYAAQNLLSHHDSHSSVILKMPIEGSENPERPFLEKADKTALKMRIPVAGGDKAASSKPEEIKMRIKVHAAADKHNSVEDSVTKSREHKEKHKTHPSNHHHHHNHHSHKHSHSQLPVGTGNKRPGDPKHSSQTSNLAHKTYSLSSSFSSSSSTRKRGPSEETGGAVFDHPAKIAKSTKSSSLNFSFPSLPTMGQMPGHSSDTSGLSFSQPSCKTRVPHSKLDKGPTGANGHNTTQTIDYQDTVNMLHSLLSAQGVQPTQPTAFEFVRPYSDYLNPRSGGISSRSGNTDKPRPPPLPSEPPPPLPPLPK

Legend:
JAK2 = JAK2 (Homo sapiens, UniProt O60674); assay: Kinase selectivity at 10 nM, JAK2
Protocol: (§1) The inhibitory effect of the compounds on the activity of CDK9 protein kinase was detected by the caliper mobility shift assay method. 250 nL of the compound at 100-fold final concentration was transferred to a target 384-well-plate with a dispenser Echo 550. A kinase solution at 2.5-fold final concentration was prepared using 1× kinase buffer. 10 μL of the kinase solution at 2.5-fold final concentration was added to the compound well and positive control well respectively. 10 μL of 1× kinase buffer was added to the negative control well. The 384-well plate was centrifuged at 1000 rpm for 30 seconds and incubated at room temperature for 10 minutes. A mixed solution of ATP and kinase substrate at 5/3-fold final concentration was prepared with 1× kinase buffer, and to the 384-well plate was added with 15 μL per well of the mixed solution of ATP and substrate at 5/3-fold final concentration to start the reaction. The plate was centrifuged at 1000 rpm for 30 seconds, shaken to mix evenly, and incubated at room temperature for a corresponding time. 30 μL of detection stopping solution was added to terminate the kinase reaction. The 384-well plate was centrifuged at 1000 rpm for 30 seconds and shaken to mix evenly. The conversion rate was read with Caliper EZ Reader. The percent conversion inhibition rate=(% positive control conversion rate mean−% sample conversion rate/(% positive control conversion rate mean−% negative control conversion rate mean). Among them: negative control wells represent the conversion rate readings of kinase buffer background wells; positive control wells represent the conversion rate readings of wells without inhibition by compound. With the log value of concentration as the x-axis and the percentage inhibition rate as the y-axis, a dose-response curve was fitted using the log (inhibitor) vs. response—Variable slope of the analysis software GraphPad Prism 5 to obtain the IC50 value of each compound on enzyme activity. Calculation formula: y=Bottom+(Top− Bottom)/(1+10^((Log IC50−x)×hillslope)), x: logarithm of inhibitor concentration; y: % inhibition rate.
(§2) According to the description of the above experiment on kinase activity inhibition, some compounds were tested for their selective inhibition rate against the kinases of CDK7, CDK9, JAK1, JAK2, JAK3, ITK, RET, TYK2, and LRRK2 at 10 nM.

JAK1 = JAK1 (Homo sapiens, UniProt P23458); assay: Kinase selectivity at 10 nM, JAK1
Protocol: as §1, §2

CDK9 = CDK9 (Homo sapiens, UniProt P50750); assay: Inhibition on CDK9 kinase activity, caliper mobility shift assay; details: 10 nM; for inhibition rate on CDK9 kinase activity: duplicate wells (Table 1); for inhibition rate CDK9: selectivity panel (Table 3)
Protocol: Compounds were tested at a concentration of 10 nM with detection in duplicate wells, or tested at 10 concentrations starting from 10 μM with three-fold serial dilutions, with detection in duplicate wells.
as §1, §2

LRRK2 = LRRK2 (Homo sapiens, UniProt Q5S007); assay: Kinase selectivity at 10 nM, LRRK2
Protocol: as §1, with “rate. […]” for “rate.”

SMILES: Clc1cnc2nc1OCCCCCNCc1cccc(c1)N2
- inhibition rate JAK2 (JAK2): C (<25%)
- inhibition rate JAK1 (JAK1): C (<25%)
- inhibition rate on CDK9 kinase activity (CDK9): A (>50%)
- inhibition rate CDK9 (CDK9): A (>50%)

SMILES: N#Cc1cnc2nc1NCCCCCNCc1cccc(c1)N2
- inhibition rate JAK2 (JAK2): C (<25%)
- inhibition rate JAK1 (JAK1): C (<25%)
- inhibition rate LRRK2 (LRRK2): C (<25%)
- inhibition rate on CDK9 kinase activity (CDK9): B (25-49%)
- inhibition rate CDK9 (CDK9): B (25-49%)

SMILES: Cc1ccc2cc1-c1nc(ncc1Cl)Nc1cccc(c1)NC/C=C\CN2
- inhibition rate JAK2 (JAK2): C (<25%)
- inhibition rate JAK1 (JAK1): C (<25%)
- inhibition rate LRRK2 (LRRK2): C (<25%)
- inhibition rate on CDK9 kinase activity (CDK9): A (>50%)
- inhibition rate CDK9 (CDK9): A (>50%)
